scFv variants of Ab-95 (light chain) against a SARS-CoV-2 spike peptide

Data: MIT Lincoln Laboratory AlphaSeq set, Engelhart et al. 2022, doi:10.1038/s41597-022-01779-4, as distributed in FLAb.

Target: peptide PDVDLGDISGINAS, taken from heptad repeat 2 (HR2) of SARS-CoV-2 spike.

Parent: Ab-95, a human scFv built as VH, the linker GGGGSGGGGSGGGGS, VL. Only the CDRs of the light chain vary.
VH: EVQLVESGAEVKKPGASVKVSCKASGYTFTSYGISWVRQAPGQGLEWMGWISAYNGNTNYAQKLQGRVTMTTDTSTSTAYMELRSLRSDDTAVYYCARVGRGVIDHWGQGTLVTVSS
VL: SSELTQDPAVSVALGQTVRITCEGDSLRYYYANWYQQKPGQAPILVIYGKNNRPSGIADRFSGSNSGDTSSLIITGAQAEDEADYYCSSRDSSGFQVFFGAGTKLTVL

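The starting antibody came from a phage panning campaign against this peptide. AAYL52 was designed without a model: most single CDR substitutions and a random sample of double and triple ones. AlphaSeq pools MATa yeast showing the antibodies with MATalpha yeast showing the peptide. The frequency of each diploid, read from paired DNA barcodes, reflects how well the two displayed proteins bind. Read counts were normalised to the haploid input and turned into Kd by a linear fit to BCL2-family pairs of known affinity, for each replicate. The assay was run in three technical replicates.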

Substitutions are numbered in sequence along the VL above, starting at 1 (not Kabat).
Every variant below is changed at L27 of the VL (sequential numbering).
Kd is apparent (estimated from mating counts) and averaged on the log scale over replicates with a signal. Smaller is tighter.
Where no diploid with the target was found in any replicate, the entry reads "nd": below detection, most likely a poor binder, though not proof of it.

| changes | apparent Kd | seen in | signal with controls |
|---|---|---|---|
| L27F | 190 nM | 3/3 | 7/9 |
| L27M/N33V/F95H | nd | 0/3 | 2/9 |
| L27F/R53K/S92Q | 1.7 µM | 3/3 | 5/9 |
| L27C/A32T/P54C | 4.0 µM | 3/3 | 3/9 |
| L27I/Y31I/A32W | 34 nM | 3/3 | 2/9 |
| D25T/L27D/A32S | 75 nM | 3/3 | 7/9 |
| L27H/S93K/F98G | 300 µM | 2/3 | 6/9 |
| L27H/S55R/F98Q | 6.4 µM | 3/3 | 3/9 |
| L27E/A32W/Q96H | 6.4 µM | 3/3 | 4/9 |
| D25Q/L27R/S88C | 2.6 µM | 1/3 | 2/9 |
| L27T/G49E/S55V | nd | 0/3 | 1/9 |
| L27E/K50M/N51A | nd | 0/3 | 4/9 |
| L27R/K50S | nd | 0/3 | 1/9 |
| L27I/N51I/P54S | 32 µM | 1/3 | 2/9 |
| E23M/L27D/V97P | nd | 0/3 | 2/9 |
| S26K/L27F/A32E | 4.3 µM | 1/3 | 1/9 |
| E23I/L27D/V97N | 87 µM | 2/3 | 2/9 |
| L27F/A32G/V97Q | nd | 0/3 | 1/9 |
| L27Y/R90G/G94D | 28 µM | 1/3 | 1/9 |
| L27M/R28W/Y31C | 1.3 µM | 3/3 | 2/9 |
| E23V/D25M/L27Y | 19 µM | 3/3 | 2/9 |
| L27C/A32H/S89E | 2.4 µM | 1/3 | 1/9 |
| L27V/S55Y/S92G | 5.7 µM | 3/3 | 2/9 |
| L27Y/N51R/Q96N | nd | 0/3 | 1/9 |
| L27P/S55V/Q96I | nd | 0/3 | 1/9 |
| S26D/L27I/S88V | 25 µM | 2/3 | 1/9 |
| L27Q/R90Y/S92Y | 18 µM | 2/3 | 1/9 |
| L27E/Q96G/F98S | 5.1 µM | 1/3 | 3/9 |
| D25C/L27M/V97P | 12 µM | 2/3 | 1/9 |
| L27G/Y29I/Q96F | 30 µM | 3/3 | 5/9 |
| E23W/L27D/S88R | 24 µM | 1/3 | 0/9 |
| L27R/D91M/S93R | nd | 0/3 | 1/9 |
| L27E/R28G/G49K | 12 µM | 2/3 | 4/9 |
| L27P/R90P | 1.5 µM | 1/3 | 3/9 |
| G24A/L27F/P54Y | 9.0 µM | 1/3 | 3/9 |
| L27T/V97D | 3.0 µM | 2/3 | 3/9 |
| S26G/L27N/G49T | 16 µM | 2/3 | 3/9 |
| L27S/R28N | 340 nM | 3/3 | 3/9 |
| G24Q/L27Y/G94I | 28 µM | 1/3 | 5/9 |
| D25V/L27Y/N33Y | 2.3 µM | 3/3 | 2/9 |
| L27T/S88F/D91G | 1.8 µM | 2/3 | 2/9 |
| L27Q/N33G/G94R | 24 µM | 3/3 | 5/9 |
| G24T/L27Y/N51S | 6.4 µM | 1/3 | 1/9 |
| L27D/N51L/R90S | 5.0 µM | 1/3 | 3/9 |
| L27H/F95W/Q96T | nd | 0/3 | 2/9 |
| L27E/K50N/V97S | 14 µM | 2/3 | 1/9 |
| L27S/K50Y/S92L | 1.7 µM | 1/3 | 1/9 |
| L27C/R90F | nd | 0/3 | 4/9 |
| E23Q/L27T/Q96E | 500 nM | 3/3 | 3/9 |
| L27E/R28W/R90L | 29 µM | 1/3 | 3/9 |
| L27P/R28W/A32T | 690 nM | 3/3 | 3/9 |
| E23T/L27R/R90C | nd | 0/3 | 1/9 |
| L27A/K50S/Q96S | 3.0 µM | 3/3 | 8/9 |
| L27P/F95H | 7.9 µM | 3/3 | 5/9 |
| L27T/Y31M/F95T | 890 nM | 2/3 | 2/9 |
| L27A/N52C/Q96H | 16 µM | 3/3 | 5/9 |
| L27V/R53Y/F98I | 9.7 µM | 1/3 | 5/9 |
| L27E/K50P/G94L | 18 µM | 3/3 | 4/9 |
| L27I/S93G | 790 nM | 3/3 | 4/9 |
| L27I/N52D/R53N | 560 µM | 1/3 | 4/9 |
| L27H/Y29W/R53D | 270 nM | 1/3 | 0/9 |
| L27Y/N52E/S89M | 350 nM | 3/3 | 4/9 |
| E23Y/L27T/Y31T | 4.1 µM | 3/3 | 3/9 |
| L27M/N51H/R53Q | 110 µM | 1/3 | 3/9 |
| G24S/L27M/F95D | 3.4 µM | 3/3 | 4/9 |
| L27R/A32M/N51P | 88 µM | 1/3 | 2/9 |
| L27Q/S93F/G94P | 79 µM | 2/3 | 5/9 |
| L27S/R28H/R53V | 5.6 µM | 3/3 | 2/9 |
| L27T/R28F/Y29I | 36 µM | 3/3 | 0/9 |
| E23F/L27N/N51Q | nd | 0/3 | 1/9 |
| L27S/P54M/S93H | 29 µM | 3/3 | 2/9 |
| L27E/R90T/S92T | nd | 0/3 | 1/9 |
| D25H/L27G/P54Q | 1.1 µM | 3/3 | 5/9 |
| L27F/N33C/P54M | 1.0 µM | 3/3 | 2/9 |
| L27S/F95Y/F98I | 8.5 µM | 1/3 | 0/9 |
| L27N/S88V/S92L | 15 µM | 1/3 | 2/9 |
| L27N/S93H/G94H | nd | 0/3 | 0/9 |
| L27S/N52E/F98E | nd | 0/3 | 1/9 |

The last 11 entries again:

| changes | apparent Kd | seen in | signal with controls |
|---|---|---|---|
| L27S/R28H/R53V | 5.6 µM | 3/3 | 2/9 |
| L27T/R28F/Y29I | 36 µM | 3/3 | 0/9 |
| E23F/L27N/N51Q | nd | 0/3 | 1/9 |
| L27S/P54M/S93H | 29 µM | 3/3 | 2/9 |
| L27E/R90T/S92T | nd | 0/3 | 1/9 |
| D25H/L27G/P54Q | 1.1 µM | 3/3 | 5/9 |
| L27F/N33C/P54M | 1.0 µM | 3/3 | 2/9 |
| L27S/F95Y/F98I | 8.5 µM | 1/3 | 0/9 |
| L27N/S88V/S92L | 15 µM | 1/3 | 2/9 |
| L27N/S93H/G94H | nd | 0/3 | 0/9 |
| L27S/N52E/F98E | nd | 0/3 | 1/9 |

Empty control strains, which show no peptide, gave a signal in 28% of pairings with library AAYL52; the median was 8.2 µM and 95% of these signals were weaker than 800 nM. No background was subtracted. The control count says in how many pairings with the empty strains this scFv gave a signal.